Reference: patent US20250109212A1 (BIOSION, published 2025)

The chains behind the UniProt entries cited, without tags or fusion partners. Where a name states a change or a piece, a line headed by the entry shows the natural chain unless it says otherwise.
UniProt P25942: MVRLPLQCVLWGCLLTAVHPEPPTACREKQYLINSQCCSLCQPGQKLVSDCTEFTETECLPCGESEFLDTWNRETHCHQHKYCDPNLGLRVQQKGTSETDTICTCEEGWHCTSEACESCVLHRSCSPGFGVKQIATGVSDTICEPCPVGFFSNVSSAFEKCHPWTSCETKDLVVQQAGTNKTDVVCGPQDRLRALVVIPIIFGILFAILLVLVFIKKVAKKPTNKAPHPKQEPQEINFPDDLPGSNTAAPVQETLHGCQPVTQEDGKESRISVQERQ

Biological target: human CD40-Fc protein (Cat #: CD0-H5253, ACRO Biosystems) (human, UniProt P25942, in part)
Assay: dual-binding ELISA: human CD40-Fc coated, binder titrated, detected with human CD47-his and anti-His-HRP, OD450

EC50: 6.17 nM
B1: SIRPα-Fc-CD40L (Fc fusion)
chain: [about 350 residues not given here]ESKYGPPCPSCPAPEFLGGPSVFLFPPKPKDTLMISRTPEVTCVVVDVSQEDPEVQFNWYVDGVEVHNAKTKPREEQFNSTYRVVSVLTVLHQDWLNGKEYKCKVSNKGLPSSIEKTISKAKGQPREPQVYTLPPSQEEMTKNQVSLTCLVKGFYPSDIAVEWESNGQPENNYKTTPPVLDSDGSFFLYSRLTVDKSRWQEGNVFSCSVMHEALHNHYTQKSLSLSLGKHRRLDKIEDERNLHEDFVFMKTIQRCNTGERSLSLLNCEEIKSQFEGFVKDIMLNKEETKKENSFEMQKGDQNPQIAAHVISEASSKTTSVLQWAEKGYYTMSNNLVTLENGKQLTVKRQGLYYIYAQVTFCSNREASSQAPFIASLCLKSPGRFERILLRAANTHSSAKPCGQQSIHLGGVFELQPGASVFVNVTDPSQVSHGTGFTSFGLLKL
